## Reported fraction unbound values for industrial, environmental and drug-like chemicals

Values as listed in the OPERA 2.9 repository of K. Mansouri.

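OPERA's authors assembled the values from existing databases and did not measure them anew. The files give a single number for a compound and property, which may rest on several reports. Method, purity and exact conditions of the single measurements are not given. A value may pool stereoisomers or salt forms, and the file does not say which form was measured. Unmarked limits or estimates from the upstream databases cannot be ruled out.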

The unbound fraction in human plasma runs from 0 (all bound) to 1 (all free).

- O=C(Nc1ccccc1)c1ccccc1I [Benodanil]: fraction unbound 0.07513
- CC[C@H](C)[C@H]1O[C@]2(C=C[C@@H]1C)C[C@@H]1C[C@@H](CC=C(C)[C@@H](O[C@H]3C[C@H](OC)[C@@H](O[C@H]4C[C@H](OC)[C@@H](O)[C@H](C)O4)[C@H](C)O3)[C@@H](C)C=CC=C3CO[C@@H]4[C@H](O)C(C)=C[C@@H](C(=O)O1)[C@]34O)O2 [Abamectin B1a]: fraction unbound 0.067
- Clc1ccc(Cl)cc1 [1,4-Dichlorobenzene]: fraction unbound 0.02291
- CC(=O)C[C@@H](c1ccccc1)C1C(=O)Oc2ccccc2C1O (stereo partly drawn) [(R)-Warfarin]: fraction unbound 0.023
- O=C(O)CCCOc1ccc(Cl)cc1Cl [2,4-DB]: fraction unbound 0.007656
- Oc1cccc2cccnc12 [8-Hydroxyquinoline]: fraction unbound 0.1184
- CCOC1Oc2ccc(OS(C)(=O)=O)cc2C1(C)C (stereo not drawn) [Ethofumesate]: fraction unbound 0.1309
- CNC(=O)Oc1ccccc1OC(C)C [Propoxur]: fraction unbound 0.2167
- ClC1C(Cl)C(Cl)C(Cl)C(Cl)C1Cl (mixture of isomers): fraction unbound 0.02703
- CCc1cc2c(s1)-n1c(C)nnc1CN=C2c1ccccc1Cl [Etizolam]: fraction unbound 0.07
- CCCCN(CCCC)N=O [N-Nitrosodibutylamine]: fraction unbound 0.2602
- Cc1ccccc1-n1c(C)nc2ccccc2c1=O [Methaqualone]: fraction unbound 0.15
- CC[C@H](OC(C)=O)C(C[C@H](C)N(C)C)(c1ccccc1)c1ccccc1 [Levomethadyl acetate]: fraction unbound 0.2
- CC(C)[C@@H](C(=O)O[C@@H](C#N)c1cc(ccc1)Oc1ccccc1)c1ccc(Cl)cc1: fraction unbound 0.001118
- CCCSP(=O)(OCC)SCCC [Ethoprop]: fraction unbound 0.09258
- ClC(Cl)(Cl)Cl: fraction unbound 0.6105
- CCCCC1(CC)C(=O)NC(=O)NC1=O [Butethal]: fraction unbound 0.67
- CCN(CC)C(=O)[C@@H]1C=C2c3cccc4[nH]cc(c34)C[C@H]2N(C)C1 [Lysergide]: fraction unbound 0.1
- O=C(Nc1ccccc1F)NC1N=C(c2ccccc2)c2ccccc2NC1=O (stereo not drawn): fraction unbound 0.03097
- N#Cc1c[nH]cc1-c1cccc2c1OC(F)(F)O2 [Fludioxonil]: fraction unbound 0.00325
- CC(NC(C)(C)C)C(=O)c1cccc(Cl)c1 (stereo not drawn) [Bupropion]: fraction unbound 0.3675
- CN1C(=O)CCS(=O)(=O)C1c1ccc(Cl)cc1 (stereo not drawn) [Chlormezanone]: fraction unbound 0.5
- CC[C@H]1C[N@@]2CC[C@H]1C[C@@H]2[C@@H](O)c1ccnc2ccc(OC)cc12 [Hydroquinidine]: fraction unbound 0.22
- CC[C@@]1(O)C[N@@]2CC[C@H]1C[C@@H]2[C@@H](O)c1ccnc2ccc(OC)cc12 [3-Hydroxyhydroquinidine]: fraction unbound 0.47
- CC(C)(c1cc(Cl)c(O)c(Cl)c1)c1cc(Cl)c(O)c(Cl)c1: fraction unbound 0.00598
- C[C@]12CC[C@H](O)C[C@H]1CC[C@@H]1[C@@H]2CC[C@]2(C)[C@@H](C3=CC(=O)OC3)CC[C@]12O [Digitoxigenin]: fraction unbound 0.0715
- C#C[C@]1(O)C=C[C@H]2[C@@H]3CCC4=CC(=O)CC[C@@H]4[C@H]3CC[C@@]21CC [Gestodene]: fraction unbound 0.02033
- O=C(O)COc1ccc(Cl)cc1Cl [2,4-Dichlorophenoxyacetic acid]: fraction unbound 0.04102
- COc1nc(NC(C)C)nc(NC(C)C)n1 [Prometon]: fraction unbound 0.0157
- CCN(CC)C(=O)N[C@H]1C=C2c3cccc4[nH]cc(c34)C[C@H]2N(C)C1 [Lisuride]: fraction unbound 0.3
- CC(C)(c1ccccc1)c1ccc(O)cc1 [4-cumylphenol]: fraction unbound 0.0231
- CC1(c2ccc(Oc3ccccc3)cc2)OC(=O)N(Nc2ccccc2)C1=O (stereo not drawn) [Famoxadone]: fraction unbound 0.0097
- CCC1(CC)C(=O)NC(=O)NC1=O [Barbital]: fraction unbound 0.9
- CC[N+]1(C)[C@@H]2C[C@@H](OC(=O)[C@H](CO)c3ccccc3)C[C@H]1[C@@H]1O[C@@H]12 (stereo partly drawn) [Oxitropium]: fraction unbound 0.93
- OCCOc1ccccc1 [2-Phenoxyethanol]: fraction unbound 0.2966
- Nc1cnn(-c2ccccc2)c(=O)c1Cl [Chloridazon]: fraction unbound 0.4276
- CCOc1cc(Oc2ccc(C(F)(F)F)cc2Cl)ccc1[N+](=O)[O-] [Oxyfluorfen]: fraction unbound 0.1216
- CN(c1nc2ccccc2s1)C1CCN(C[C@H](O)COc2ccc(F)c(F)c2)CC1 [Lubeluzole]: fraction unbound 0.003
- Clc1ccc2c(c1)C(c1ccccc1)=NCc1nncn1-2 [Estazolam]: fraction unbound 0.07

The last 4 entries again:

{"smiles": "Nc1cnn(-c2ccccc2)c(=O)c1Cl", "name": "Chloridazon", "fraction unbound": "0.4276"}
{"smiles": "CCOc1cc(Oc2ccc(C(F)(F)F)cc2Cl)ccc1[N+](=O)[O-]", "name": "Oxyfluorfen", "fraction unbound": "0.1216"}
{"smiles": "CN(c1nc2ccccc2s1)C1CCN(C[C@H](O)COc2ccc(F)c(F)c2)CC1", "name": "Lubeluzole", "fraction unbound": "0.003"}
{"smiles": "Clc1ccc2c(c1)C(c1ccccc1)=NCc1nncn1-2", "name": "Estazolam", "fraction unbound": "0.07"}